The assay concerns the target T1, human cannabinoid type-1 receptors (hCB1) (Homo sapiens, UniProt P21554).
T1 construct: host or cells: CHO cells (CHO-hCB1), membranes or intact cells
Put plainly: Competition receptor binding with [3H]CP-55,940, CHO-hCB1 membranes. The settings on record: ratio of Ki hCB1 / Ki hCB2. As to the method:
In short, pellets were thawed on ice, combined in a 40 ml glass Dounce homogenizer and homogenized in 20 ml of cold buffer (50 mM HEPES at pH 7.4, 3 mM MgCl2, and 1 mM EGTA) using 10 strokes. Homogenates were then centrifuged at 40,000 × g for 10 min at 4°C. After discarding the supernatant, pellets were homogenized and centrifuged twice more. Final pellets were re-suspended in ice-cold 50 mM HEPES, pH 7.4, aliquoted and stored at -80°C for future use. Protein concentration was determined the same day, prior to freezing, using BCA^TM Protein Assay (Thermo Fisher Scientific, Waltham, MA, USA).
The final volume of each sample was 1 ml, containing 50 mM Tris-HCl buffer (pH 7.4), 0.05% bovine serum albumin, 5 mM MgCl2, increasing concentrations of non-radioactive competing SERM ligands, and either 100 μg of CHO-hCB1 or 50 μg of CHO-hCB2 membrane homogenates. […] Each sample condition was performed in triplicate and allowed to reach equilibrium at room temperature for 90 min. Reactions were terminated by rapid vacuum filtration through Whatman GF/B glass fiber filters (Brandel, Inc.), followed by four 4 ml washes of ice-cold filtration buffer (50 mM Tris at pH 7.4 and 0.05% BSA). […] Final counts were determined using liquid scintillation spectrophotometry (Tri Carb 2100 TR Liquid Scintillation Analyzer, Packard Instrument Company, Meriden, CT, USA) after overnight incubation. […]

The chains behind the UniProt entries cited, without tags or fusion partners.
UniProt P21554, whole entry: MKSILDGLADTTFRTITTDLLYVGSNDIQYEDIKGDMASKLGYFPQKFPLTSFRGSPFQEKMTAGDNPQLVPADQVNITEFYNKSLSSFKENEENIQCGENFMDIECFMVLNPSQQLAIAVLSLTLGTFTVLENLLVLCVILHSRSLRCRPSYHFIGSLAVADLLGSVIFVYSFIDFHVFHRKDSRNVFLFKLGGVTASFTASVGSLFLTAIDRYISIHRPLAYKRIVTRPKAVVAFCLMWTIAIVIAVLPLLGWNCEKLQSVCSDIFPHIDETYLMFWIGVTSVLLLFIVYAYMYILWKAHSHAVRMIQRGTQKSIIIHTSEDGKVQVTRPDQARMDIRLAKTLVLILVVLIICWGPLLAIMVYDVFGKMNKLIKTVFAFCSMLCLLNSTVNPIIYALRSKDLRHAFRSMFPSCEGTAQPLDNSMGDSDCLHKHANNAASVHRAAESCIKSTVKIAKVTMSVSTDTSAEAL

On to `OCCOc1ccc(/C(=C(/CCCl)c2ccccc2)c2ccccc2)cc1` [OSP, ospemifene], for which the “Selectivity (CB1/CB2)” value was 0.20.
